Screening results from PubChem BioAssay.
Most compounds without a hit are left out; they make up all but 4.2% or so of the library.
HDAC3 inhib – HDAC3 deacetylase inhibitors, primary screen, biochemical, fluorescence, cell-free homogeneous; recombinant HDAC3, fluorogenic peptide/trypsin coupled; 320,000 tested, 0.15% active; inhibition, % at 8.3 µM; Histone deacetylase 3 (Homo sapiens), O15379; in the data active = inhibition above about 26%, passing the limit was not always enough; inconclusive = no clear call, values can overlap the other calls
MC4R ag barr – MC4R agonists recruiting beta-arrestin, primary screen, cell-based, luminescence, agonist arm of biased-ligand search; U2OS MC4R beta-arrestin complementation; percent of melanotan II response, DMSO zero; activation, % at 8.9 µM; 360,000 tested, 0.98% active;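 active = activation above a per-plate cutoff, the mean activation of sample wells on that plate plus 3 SD, cut at about 8% in these data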
Yeast UUG start – modulators of yeast start codon fidelity, primary screen, whole organism, S. cerevisiae, single point, plate reader | AID 602363, 2012 | S. cerevisiae UUG-firefly luciferase reporter, luminescence/redox ratio | activity score, % at 18.7 µM | hit rate 0.13% among 350,000;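 active = replicate mean at a twofold rise or more, about +100% in these data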;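 also: firefly luciferase made from a UUG start codon reports start codon fidelity; reporter light over untreated wells divided by growth signal over untreated wells; some hits fall short of that in this replicate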
NALP1 yeast inh – NALP1 inflammasome inhibitors in reconstituted yeast, colorimetric, S. cerevisiae, triplicate retest. inhibition, % at 10 µM. 280,000 tested, 0.61% active. AID 2071, 2009. S. cerevisiae NALP1/ASC/caspase-1 growth, X-gal OD620, 72 h; in the data active = inhibition mostly above about 24%, no sharp cut-off; inactive = mostly below about 32%
MC4R antag cAMP – MC4R antagonists of cAMP signaling, primary screen, cell-based, TR-FRET, antagonist arm of biased-ligand search; Melanocortin receptor 4 (Homo sapiens), P32245; MC4R-expressing cells, MTII-stimulated cAMP, LANCE TR-FRET; inhibition, % at 6.5 µM; 360,000 tested, 0.48% active;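 active = inhibition above its plate's cutoff, the mean of tested wells on that plate plus 3 SD, cut at about 29% in these data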
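System: U2OS cells stably expressing human melanocortin 4 receptor (MC4R). Reagent: Melanotan II challenge after compound preincubation. Doses: 6.5 µM. Times: 30-min compound, 1-h challenge, 1-h detection, room temperature. Measured by: TR-FRET with Eu-cAMP and labeled anti-cAMP, 671 nm. Replicates: singlicate.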
ALR H2O2 inh – human ALR oxidase inhibition via reduced H2O2; purified ALR, DTT oxidation, H2O2 HRP-luminol luminescence; inhibition, % (concentration not given with the values); 290,000 tested, 3.8% active; AID 485317;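 active = mean and each replicate at 75% or more; inconclusive = only one of the two met; inactive = neither met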;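 also: stock transfer was 7.5 nL into about 7.5 µL; 0% = neutral wells and 100% = wells with inactivated enzyme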
Of the large screens only hits and unclear results are named; the others gave an inactive call.

Amino acid sequences for entries named in this document (tags omitted).
Melanocortin receptor 4 (Homo sapiens), P32245, UniProt P32245, whole entry, looked up: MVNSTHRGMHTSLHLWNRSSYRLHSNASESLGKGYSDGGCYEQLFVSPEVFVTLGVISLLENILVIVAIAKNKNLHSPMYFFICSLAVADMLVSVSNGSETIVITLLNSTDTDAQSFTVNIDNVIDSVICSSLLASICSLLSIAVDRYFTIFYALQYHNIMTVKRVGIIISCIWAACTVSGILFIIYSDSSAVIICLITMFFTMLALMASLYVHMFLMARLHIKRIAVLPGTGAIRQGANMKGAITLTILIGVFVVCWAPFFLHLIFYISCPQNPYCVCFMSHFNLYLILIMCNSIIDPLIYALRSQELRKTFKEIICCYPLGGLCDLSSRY

CC(C)NC(=O)Nc1cccc2c1O[C@H](CN(C)C(=O)Nc1cccc3ccccc13)[C@@H](C)CN([C@H](C)CO)C2=O	none (no result: HDAC3 inhib, MC4R ag barr, NALP1 yeast inh, MC4R antag cAMP, ALR H2O2 inh)
C[C@H](CO)N1C[C@H](C)[C@H](CN(C)S(=O)(=O)c2ccccc2)Oc2c(NC(=O)C3CCOCC3)cccc2C1=O	none (no result: HDAC3 inhib, MC4R ag barr, NALP1 yeast inh, MC4R antag cAMP, ALR H2O2 inh)
C[C@@H]1CN([C@H](C)CO)C(=O)Cc2cc(NC(=O)NC3CCCCC3)ccc2O[C@@H]1CN(C)S(C)(=O)=O	none (no result: HDAC3 inhib, MC4R ag barr, NALP1 yeast inh, MC4R antag cAMP, ALR H2O2 inh)
C[C@@H]1CCCCO[C@@H](CN(C)C(=O)NC2CCCCC2)[C@@H](C)CN([C@@H](C)CO)C(=O)c2cc(NC(=O)CCC(F)(F)F)ccc2O1	none (no result: HDAC3 inhib, MC4R ag barr, NALP1 yeast inh, MC4R antag cAMP, ALR H2O2 inh)
O=C(NCc1ccccc1Cl)c1ccc(-c2ccccc2)cc1	MC4R ag barr 9.3 (no result: Yeast UUG start)
C[C@H]1CN([C@@H](C)CO)C(=O)Cc2cc(NS(=O)(=O)c3ccc(F)cc3)ccc2O[C@@H]1CN(C)Cc1ccc(C(=O)O)cc1	none (no result: HDAC3 inhib, MC4R ag barr, NALP1 yeast inh, MC4R antag cAMP, ALR H2O2 inh)
CO[C@@H]1CN(C)C(=O)c2cc(NS(=O)(=O)c3ccc(F)cc3)ccc2OC[C@H](C)NC[C@@H]1C	none (no result: HDAC3 inhib, MC4R ag barr, NALP1 yeast inh, MC4R antag cAMP, ALR H2O2 inh)
COc1ccccc1NS(=O)(=O)c1cc([N+](=O)[O-])ccc1N/N=C/c1c[nH]c2ccccc12	ALR H2O2 inh 99
Cc1oc(-c2ccc(Cl)cc2)nc1CS(=O)CC(=O)NCCCN1CCCC(C)C1 (stereo not given)	ALR H2O2 inh 99
COc1ccc(-c2nc(CS(=O)CC(=O)NCCCN3CCCC(C)C3)c(C)o2)cc1OC (stereo not given)	ALR H2O2 inh 99
Cc1ccc(-c2nc(CS(=O)CC(=O)NCCN3CCCCC3C)c(C)o2)cc1 (stereo not given)	ALR H2O2 inh 98
Cc1ccccc1-c1nc(CN2CCC(C(=O)NCCCN3CCCC(C)C3)CC2)c(C)o1 (stereo not given)	none
Cc1ccc(-c2nc(CS(=O)(=O)CC(=O)NCCCN3CCOCC3)c(C)o2)cc1	none
Cc1ccc(-c2nc(CS(=O)CC(=O)NCCCN3CC(C)CC(C)C3)c(C)o2)cc1 (stereo not given)	ALR H2O2 inh 99
O=C(N[C@@H]1CC[C@@H](CC(=O)N2CCCCC2)O[C@H]1CO)c1cccc(F)c1	none (no result: HDAC3 inhib, MC4R ag barr, NALP1 yeast inh, MC4R antag cAMP, ALR H2O2 inh)
Cc1oc(-c2cccs2)nc1CS(=O)CC(=O)NCCCN1CC(C)CC(C)C1 (stereo not given)	ALR H2O2 inh 99
Cc1ccccc1-c1nc(CS(=O)(=O)CC(=O)NCCCN2CCN(C)CC2)c(C)o1	none
Cc1oc(-c2ccc(Cl)cc2)nc1CS(=O)CC(=O)NCCCN1CCN(Cc2ccccc2)CC1 (stereo not given)	ALR H2O2 inh inconclusive
CCc1ccc(-c2nc(CS(=O)CC(=O)NCCCN3CCOCC3)c(C)o2)cc1 (stereo not given)	ALR H2O2 inh 100
COc1ccc(-c2nc(CS(=O)CC(=O)NCCCN3CC(C)CC(C)C3)c(C)o2)cc1OC (stereo not given)	ALR H2O2 inh 98
CC(C)C#Cc1cnc2c(c1)C(=O)N([C@@H](C)CO)C[C@H](C)[C@@H](CN(C)C(=O)Cc1ccccn1)O2	none (no result: HDAC3 inhib, MC4R ag barr, NALP1 yeast inh, MC4R antag cAMP, ALR H2O2 inh)
C[C@H](CO)N1C[C@H](C)[C@@H](CN(C)C)Oc2ccc(NS(C)(=O)=O)cc2CC1=O	none (no result: HDAC3 inhib, MC4R ag barr, NALP1 yeast inh, MC4R antag cAMP, ALR H2O2 inh)
Cc1ccc(S(=O)(=O)N(C)C[C@H]2Oc3ccc(NC(=O)CCCN(C)C)cc3CC(=O)N([C@@H](C)CO)C[C@@H]2C)cc1	none (no result: HDAC3 inhib, MC4R ag barr, NALP1 yeast inh, MC4R antag cAMP, ALR H2O2 inh)
C[C@@H]1CN([C@H](C)CO)S(=O)(=O)c2ccc(C#CC3(O)CCCC3)cc2O[C@@H]1CN(C)C(=O)Cc1cccnc1	none (no result: HDAC3 inhib, MC4R ag barr, NALP1 yeast inh, MC4R antag cAMP, ALR H2O2 inh)
CCNC(=O)C[C@@H]1C=C[C@H](NS(=O)(=O)c2ccc(F)cc2)[C@H](CO)O1	none (no result: HDAC3 inhib, MC4R ag barr, NALP1 yeast inh, MC4R antag cAMP, ALR H2O2 inh)
CC(C)N(CCC(=O)c1ccc2ccccc2c1)Cc1ccccc1	ALR H2O2 inh 97 (no result: NALP1 yeast inh)
CC(OC(=O)c1ccc2ccccc2c1)C(=O)N(C)Cc1ccccc1 (stereo not given)	none (no result: NALP1 yeast inh)
